## Yeast mating assay B: variants of the scFv Ab-14

Values reported by Li et al. 2023, doi:10.1038/s41467-023-39022-2 (FLAb copy).

All variants were tested on one target, the spike HR2 peptide PDVDLGDISGINAS (SARS-CoV-2).

Parent scFv Ab-14: VH joined to VL by the linker GGGGSGGGGSGGGGS. Changes lie in the light chain CDRs alone.
VH: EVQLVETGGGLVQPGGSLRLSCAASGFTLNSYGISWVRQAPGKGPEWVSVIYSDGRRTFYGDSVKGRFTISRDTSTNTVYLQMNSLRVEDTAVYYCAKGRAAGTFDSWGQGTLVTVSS
VL: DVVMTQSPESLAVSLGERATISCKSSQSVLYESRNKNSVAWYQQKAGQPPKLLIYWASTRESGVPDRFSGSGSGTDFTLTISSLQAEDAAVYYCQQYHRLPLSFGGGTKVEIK

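This is the validation round: designs drawn from the data on random variants, tested in the same kind of assay. Their group label is 14L_En_Gibbs (En: ensemble of fine-tuned language models; Gibbs: Gibbs sampling). In AlphaSeq, yeast of one mating type display the scFv and yeast of the other type display the target. Pairs that bind mate more often; barcode pairs of the diploids are counted by sequencing. Scores were corrected for input abundance and mapped to Kd with protein pairs of known affinity run in the same pool. There are six technical replicates.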

Each variant is given by its three light chain CDRs, as the data file delimits them; those of the parent are KSSQSVLYESRNKNSVA, WASTRES, QQYHRLPLS.
Affinities are written as log10 Kd with Kd in nM; a lower number is a better binder.
Replicates are averaged; those with no signal do not enter the mean.
An entry "nd" has no value in the source: the pair was not observed among the diploids in that replicate. This suggests poor binding but is not conclusive.
Values of this round are not directly comparable with the first-round values of the same sequences.

CDR-L1 | CDR-L2 | CDR-L3 | replicates, log10 nM | mean log10 Kd (nM) | signal with controls
NLSGMVEEIETRQKNIA | EVEFRCM | QQYSRLPLS | 2.20 / 2.02 / 1.72 / 1.83 / 1.44 / 1.75 | 1.83 | 1/18 (2.75)
MLSMMEQHMGDRMHNVA | ETNVAKM | QDYFRLPLM | nd / nd / nd / nd / nd / nd | nd | 0/18
RVSSMLMAGGIHYNNIA | NTKVLEY | QQYMRLPLG | 0.61 / 0.36 / 1.20 / 0.18 / 0.59 / 0.35 | 0.55 | 0/18
NMKVGLNFGDIQHQAIA | EVEKRES | QQYARLPLT | 0.27 / 0.25 / 0.21 / 0.16 / 0.29 / 0.46 | 0.27 | 1/18 (1.07)
KIQPHLSQSFASKNNVA | DRVLSAE | QQYNRLPLV | -0.22 / -0.28 / -0.40 / -0.28 / -0.03 / -0.07 | -0.22 | 0/18
ILEENSDDITEIGNSIA | ETNMVRS | QQYHRLPLA | 1.59 / 0.76 / 0.72 / 0.79 / 0.76 / 1.13 | 0.96 | 1/18 (1.82)
QFAGAMYGGGNDNQNIA | EAMTYIK | QQYSRLPLI | nd / nd / nd / nd / nd / nd | nd | 0/18
SITYLDNPGSQGHNNIA | SGSCRAE | QQYIRLPLI | 0.49 / 0.81 / 0.54 / 0.33 / 0.50 / 1.33 | 0.67 | 1/18 (1.32)
SIRAVGCDWQRNHSNIA | DATQIED | QQYDMLPLS | nd / nd / 1.57 / 3.64 / 2.68 / nd | 2.63 | 1/18 (1.48)
RLLAQNLQNMDKLNSIA | EQSVHYQ | QQYGRLPLT | 2.20 / 2.88 / 1.49 / 1.39 / 1.96 / 2.27 | 2.03 | 0/18
SVRHPFQGENGMKASVA | NATIRDH | QQYFRLPLF | 0.39 / 0.19 / 0.10 / -0.03 / 0.10 / 0.18 | 0.16 | 2/18 (4.46)
KLMMQMQEIGIMKNNIA | NLEIGAR | QQYAQLPLV | nd / nd / nd / nd / nd / nd | nd | 0/18
KLDMNELGQSQNSSHVA | GSANKCQ | QQYFRLPLS | 0.85 / 1.26 / 1.56 / 1.03 / 1.08 / 1.45 | 1.20 | 0/18
HLGNEGDNQGNAKKSVA | DQNTVQL | QHYSRLPLT | 1.66 / 1.43 / 1.20 / 0.82 / 0.93 / 1.08 | 1.19 | 2/18 (2.78)
RITDHFLGLGNGRQNIA | HAGVAVE | QQYHQLPLA | 0.53 / 0.59 / 0.48 / 0.52 / 0.74 / 0.63 | 0.58 | 1/18 (3.87)
YFSEQAKTDRNQQYSIA | GMDIREK | QQYGRLPLM | 1.67 / 0.92 / 1.69 / 1.68 / 3.62 / 2.04 | 1.94 | 1/18 (2.20)
KLQTLTNTANIGESSVA | DANVHVD | QQYFRLPLS | 0.56 / 0.48 / 0.36 / 0.48 / 0.11 / 0.52 | 0.42 | 0/18
NIRIEDYSEHNNANNVA | STDCRCD | QQYFMLPLM | 1.07 / 1.07 / 1.04 / 0.85 / 0.72 / 0.95 | 0.95 | 0/18
ALELFEYQQMKDINSIA | NTEYKTN | QQYVRLPFS | 0.39 / 0.45 / 0.48 / 0.45 / 0.41 / 0.48 | 0.45 | 0/18
NISTQIPEFEMWDNAIA | GATLRPT | QHYARLPLS | 0.96 / 1.07 / 0.71 / 0.53 / 0.39 / 1.22 | 0.81 | 0/18
NLGGEDFQDTRGMAAVA | DVSEVGD | QHYSRLPLS | 2.25 / 1.29 / 1.58 / 2.24 / 1.95 / 1.69 | 1.83 | 3/18 (2.62)
VFQQQWDGVTLTNSSVA | NVDERME | QQYNRLPLM | 2.48 / 2.52 / 2.51 / 2.33 / 3.28 / 2.75 | 2.65 | 1/18 (4.72)
HINTEWNHGANRDNNIA | EAQTVAA | QDYFRLPII | 1.25 / 1.40 / 0.80 / 1.06 / 0.66 / 1.28 | 1.08 | 0/18
FIGGNYYDKYQASNSIA | DEAHLMA | QQYDLLPLS | 0.84 / 1.09 / 1.27 / 0.52 / 1.77 / 1.03 | 1.09 | 0/18
QFEFTEEEGYQYSNNIA | NGEQRFS | QQYVKLPLV | 0.61 / 0.57 / 0.73 / 0.50 / 0.75 / 0.95 | 0.69 | 0/18
KLEDSNRWHLRGTNAVA | QASTRAA | QQYQRLPFL | 1.21 / 1.05 / 0.89 / 0.92 / 0.96 / 1.04 | 1.01 | 3/18 (3.53)
MLPESMPQQIDNKNPVA | GAQHTAV | QQYDRLPLT | 2.16 / 2.45 / 1.24 / 1.38 / 1.59 / 1.63 | 1.74 | 0/18
NISINQADEYKMRNNIA | NTSWKAM | QQYFHLPLM | 0.72 / 0.35 / 0.57 / 0.32 / 0.36 / 0.78 | 0.52 | 0/18
NFYMDAAEFVNEDESIA | DAEISYD | QQYHRLPLV | nd / 3.97 / nd / nd / nd / nd | 3.97 | 0/18
HINTLDVGVSDHYNAVA | EQRAAGI | QQYFRLPLS | 1.70 / 1.81 / 1.93 / 2.12 / 1.49 / 1.82 | 1.81 | 0/18
KLYYDAAERVMDTENIA | EKTISYQ | QQYHRLPLS | nd / 1.87 / 1.75 / 1.54 / 1.40 / 2.18 | 1.75 | 0/18
VLSDTIENMASEADNIA | DTTETSG | QQYYRLPLS | 0.69 / 0.99 / 1.27 / 0.68 / 1.22 / 2.01 | 1.14 | 0/18
AVSIQHMENTAIWNAIA | DTSLRAH | QQYYHLPLS | 1.83 / 1.36 / 1.32 / 1.54 / 1.36 / 1.35 | 1.46 | 0/18
QIDSFYQHGTDQNQAMA | DVTMRDQ | QQYSRLPLS | 0.56 / 0.59 / 0.31 / 0.38 / 0.44 / 0.99 | 0.54 | 0/18
KWQKDSLGQEQYQNNIA | NQELRTA | QQYYMLPLT | 0.68 / 0.55 / 0.42 / 0.19 / 0.24 / 0.40 | 0.41 | 1/18 (2.01)
NISIHGMDENSTRNHIA | DTNIRDF | QQYWHLPLS | 1.42 / 0.66 / 1.41 / 0.89 / 0.83 / 1.20 | 1.07 | 1/18 (2.91)
NLGQKMSHEYEQRNSIA | DMTVREY | QHYSRIPLI | nd / nd / nd / nd / nd / nd | nd | 0/18
KITWSQYNWTSNYQAVA | EQNMRAR | QSYYRLPFS | nd / 2.01 / nd / nd / 2.01 / 2.15 | 2.06 | 1/18 (1.80)
KLYQRGEGSQKVDRSIA | EMQTRCE | QSYQRLPLS | 1.12 / 1.23 / 1.11 / 1.36 / 1.86 / 1.53 | 1.37 | 2/18 (2.22)
YVSGDLAEGWNQQEAIA | HVSYKED | QQYYKLPLS | 2.54 / 2.03 / 2.71 / 2.34 / nd / 3.43 | 2.61 | 0/18
QLEFEDVQGTAKWHAIA | EGSQLAQ | QQYFHLPLG | 1.09 / 1.11 / 0.92 / 1.15 / 0.98 / 0.94 | 1.03 | 2/18 (3.42)
MIEIIQDGYMEMRSAVA | DTSLVRM | QQYYRLPLM | nd / nd / nd / nd / nd / 1.46 | 1.46 | 0/18
HMRMECYQYDNYGKAVA | HANQRHN | QQYSRLPFS | nd / 1.51 / 0.51 / 3.61 / 1.04 / 1.89 | 1.71 | 2/18 (2.05)
KLSWKSLYGETRWSAIA | NTKVRNA | QQYFRLPIQ | 1.84 / 1.14 / 1.62 / 1.81 / 1.38 / 1.40 | 1.53 | 0/18

Picked from the list: the 6 lowest averages where every replicate gave a value.

CDR-L1,CDR-L2,CDR-L3,"replicates, log10 nM",mean log10 Kd (nM),signal with controls
KIQPHLSQSFASKNNVA,DRVLSAE,QQYNRLPLV,-0.22 / -0.28 / -0.40 / -0.28 / -0.03 / -0.07,-0.22,0/18
SVRHPFQGENGMKASVA,NATIRDH,QQYFRLPLF,0.39 / 0.19 / 0.10 / -0.03 / 0.10 / 0.18,0.16,2/18 (4.46)
NMKVGLNFGDIQHQAIA,EVEKRES,QQYARLPLT,0.27 / 0.25 / 0.21 / 0.16 / 0.29 / 0.46,0.27,1/18 (1.07)
KWQKDSLGQEQYQNNIA,NQELRTA,QQYYMLPLT,0.68 / 0.55 / 0.42 / 0.19 / 0.24 / 0.40,0.41,1/18 (2.01)
KLQTLTNTANIGESSVA,DANVHVD,QQYFRLPLS,0.56 / 0.48 / 0.36 / 0.48 / 0.11 / 0.52,0.42,0/18
ALELFEYQQMKDINSIA,NTEYKTN,QQYVRLPFS,0.39 / 0.45 / 0.48 / 0.45 / 0.41 / 0.48,0.45,0/18

Of ten entries with the parent sequence, four were seen in most replicates (averages 0.34 to 2.37), three in one and three in none, so single entries are noisy.
Nonspecific signal, from three strains lacking the peptide, appeared in 4% of pairings of all light chain designs, centred on 2.64 (5% of these signals below 1.59); values are not corrected for it. For each scFv, signals with the empty controls are counted beside the result, with their mean in brackets.
In the paper, a design with two or fewer of six values counts as a poor binder.